Target: P2X purinoceptor 3 (Rattus norvegicus) (UniProt P49654)
Experiment: The compound was evaluated for antagonist activity against recombinant rat P2X purinoceptor 3 (P2X3) at 10 uM,expressed in Xenopus oocytes

## Cc1nc(/N=N/c2ccc(S(=O)(=O)O)cc2S(=O)(=O)O)c(COP(=O)(O)O)c(C=O)c1O
  EC50: 240 nM

— BindingDB's records for doi:10.1021/jm020046y (National Institute of Diabetes, 2002)
